Data set [1] has as its system chronic methadone subjects. Nature of the data set: Example 2: side effects, vital signs and opioid withdrawal. In kind it is in vivo, human. The settings on record: methylnaltrexone group n=11, iv up to 0.365 mg/kg.
The subject of data set [2] is chronic methadone subjects with methadone-induced constipation. The data set can be described thus: Example 2: double-blind placebo-controlled trial of intravenous methylnaltrexone, laxation response. The note with it: iv up to 0.365 mg/kg, P<0.0001 vs placebo.

For the compound `C[N@+]1(CC2CC2)CC[C@]23c4c5ccc(O)c4O[C@H]2C(=O)CC[C@@]3(O)[C@H]1C5` [methylnaltrexone, N-methylnaltrexone bromide], in data set [1], the opioid withdrawal symptoms result is listed as “no opioid withdrawal symptoms observed” and the side effects result is recorded as “No significant side effects”. Also, the “subjects with immediate laxation response” value in data set [2] (methylnaltrexone group n=11, Day 1 afternoon session) is “Ten”. Also, the “subjects with immediate laxation response” value in data set [2] (methylnaltrexone group n=11, Day 2 morning session) was determined as 11 subjects.
